The values below come from patent publication US20060223811A1, “Triglycerine depressant composition” (priority 2000, published 2006).

The assay deals with blood triglyceride levels. Briefly: Assay of blood triglyceride levels in dogs after 11 days of oral capsule administration (GK-GPO-POD method). The following applies: Table 9, serum, relative ratio against averaged pre-dosing level (100), oral capsule once daily, pravastatin 2 mg/kg, pantethine 300 mg/kg, mean of 5 dogs.

`CC(C)(CO)[C@@H](O)C(=O)NCCC(=O)NCCSSCCNC(=O)CCNC(=O)[C@H](O)C(C)(C)CO` [Pantethine alone, Pantethine]: the “Blood Triglyceride Levels after administration, 4 days” value (4 days) worked out at 104.4. Besides, for the setting “8 days”, the “Blood Triglyceride Levels after administration, 8 days” value came to 103.9. The “Blood Triglyceride Levels after administration, 12 days” value (12 days) worked out at 96.6.
